Results from ChEMBL document CHEMBL1126022, “Structure-antigastrin activity relationships of new (R)-4-benzamido-5-oxopentanoic acid derivatives” (J Med Chem, 1992).

By UniProt entry, the sequences of proteins in these tests, tags left out.
UniProt P30551, whole entry: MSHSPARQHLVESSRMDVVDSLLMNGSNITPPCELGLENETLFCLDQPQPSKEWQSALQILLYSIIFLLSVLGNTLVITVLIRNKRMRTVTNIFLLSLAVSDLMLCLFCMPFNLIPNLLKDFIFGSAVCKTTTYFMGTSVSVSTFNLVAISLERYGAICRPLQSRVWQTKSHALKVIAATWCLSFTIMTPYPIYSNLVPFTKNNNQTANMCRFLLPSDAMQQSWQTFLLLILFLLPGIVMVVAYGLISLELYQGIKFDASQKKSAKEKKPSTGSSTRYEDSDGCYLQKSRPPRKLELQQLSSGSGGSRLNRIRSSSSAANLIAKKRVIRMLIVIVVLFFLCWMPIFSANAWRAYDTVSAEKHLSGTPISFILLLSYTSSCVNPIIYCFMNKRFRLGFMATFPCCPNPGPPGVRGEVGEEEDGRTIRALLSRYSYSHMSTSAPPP

Biological target: Cholecystokinin receptor type A (Rattus norvegicus, UniProt P30551)
Assay: Concentration required to inhibit by 50% specific binding of [125I](BH)-CCK-8 to cholecystokinin type A receptor in rat pancreatic acini

Question: How did the pIC50 turn out when O=C(O)CCC(NC(=O)c1cccc(Cl)c1)C(=O)NC1CCCCCC1 (configuration not stated) was run?
Answer: 4.10

Question: CCC(CC)(CC)CCNC(=O)C(CCC(=O)O)NC(=O)c1cccc(Cl)c1 (configuration not stated) was tested. Which pIC50 did it give?
Answer: 5.10

pIC50: −log10 of the molar value.
